{"sequences": {"note": "Protein sequences, listed by entry. Tags and fused reporters are not part of them. Lines headed by an entry give the natural chain unless they say otherwise; changes in a name come on top.", "UniProt Q4U2R8": "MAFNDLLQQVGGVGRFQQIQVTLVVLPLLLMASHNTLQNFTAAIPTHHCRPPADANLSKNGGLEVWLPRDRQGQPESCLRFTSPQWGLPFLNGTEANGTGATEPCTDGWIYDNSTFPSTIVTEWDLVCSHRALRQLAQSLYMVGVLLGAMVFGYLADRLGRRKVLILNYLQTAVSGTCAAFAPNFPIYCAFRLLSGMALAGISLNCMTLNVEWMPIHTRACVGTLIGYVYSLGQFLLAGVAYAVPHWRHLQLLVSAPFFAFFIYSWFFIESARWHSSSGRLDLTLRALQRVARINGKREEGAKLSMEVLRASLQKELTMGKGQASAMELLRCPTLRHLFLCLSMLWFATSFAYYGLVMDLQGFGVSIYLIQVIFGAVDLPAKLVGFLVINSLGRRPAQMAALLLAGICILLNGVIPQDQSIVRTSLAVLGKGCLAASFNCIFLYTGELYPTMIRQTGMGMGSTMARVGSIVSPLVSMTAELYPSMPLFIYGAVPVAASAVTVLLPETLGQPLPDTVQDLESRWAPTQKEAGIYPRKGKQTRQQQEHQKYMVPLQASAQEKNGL", "UniProt Q92887": "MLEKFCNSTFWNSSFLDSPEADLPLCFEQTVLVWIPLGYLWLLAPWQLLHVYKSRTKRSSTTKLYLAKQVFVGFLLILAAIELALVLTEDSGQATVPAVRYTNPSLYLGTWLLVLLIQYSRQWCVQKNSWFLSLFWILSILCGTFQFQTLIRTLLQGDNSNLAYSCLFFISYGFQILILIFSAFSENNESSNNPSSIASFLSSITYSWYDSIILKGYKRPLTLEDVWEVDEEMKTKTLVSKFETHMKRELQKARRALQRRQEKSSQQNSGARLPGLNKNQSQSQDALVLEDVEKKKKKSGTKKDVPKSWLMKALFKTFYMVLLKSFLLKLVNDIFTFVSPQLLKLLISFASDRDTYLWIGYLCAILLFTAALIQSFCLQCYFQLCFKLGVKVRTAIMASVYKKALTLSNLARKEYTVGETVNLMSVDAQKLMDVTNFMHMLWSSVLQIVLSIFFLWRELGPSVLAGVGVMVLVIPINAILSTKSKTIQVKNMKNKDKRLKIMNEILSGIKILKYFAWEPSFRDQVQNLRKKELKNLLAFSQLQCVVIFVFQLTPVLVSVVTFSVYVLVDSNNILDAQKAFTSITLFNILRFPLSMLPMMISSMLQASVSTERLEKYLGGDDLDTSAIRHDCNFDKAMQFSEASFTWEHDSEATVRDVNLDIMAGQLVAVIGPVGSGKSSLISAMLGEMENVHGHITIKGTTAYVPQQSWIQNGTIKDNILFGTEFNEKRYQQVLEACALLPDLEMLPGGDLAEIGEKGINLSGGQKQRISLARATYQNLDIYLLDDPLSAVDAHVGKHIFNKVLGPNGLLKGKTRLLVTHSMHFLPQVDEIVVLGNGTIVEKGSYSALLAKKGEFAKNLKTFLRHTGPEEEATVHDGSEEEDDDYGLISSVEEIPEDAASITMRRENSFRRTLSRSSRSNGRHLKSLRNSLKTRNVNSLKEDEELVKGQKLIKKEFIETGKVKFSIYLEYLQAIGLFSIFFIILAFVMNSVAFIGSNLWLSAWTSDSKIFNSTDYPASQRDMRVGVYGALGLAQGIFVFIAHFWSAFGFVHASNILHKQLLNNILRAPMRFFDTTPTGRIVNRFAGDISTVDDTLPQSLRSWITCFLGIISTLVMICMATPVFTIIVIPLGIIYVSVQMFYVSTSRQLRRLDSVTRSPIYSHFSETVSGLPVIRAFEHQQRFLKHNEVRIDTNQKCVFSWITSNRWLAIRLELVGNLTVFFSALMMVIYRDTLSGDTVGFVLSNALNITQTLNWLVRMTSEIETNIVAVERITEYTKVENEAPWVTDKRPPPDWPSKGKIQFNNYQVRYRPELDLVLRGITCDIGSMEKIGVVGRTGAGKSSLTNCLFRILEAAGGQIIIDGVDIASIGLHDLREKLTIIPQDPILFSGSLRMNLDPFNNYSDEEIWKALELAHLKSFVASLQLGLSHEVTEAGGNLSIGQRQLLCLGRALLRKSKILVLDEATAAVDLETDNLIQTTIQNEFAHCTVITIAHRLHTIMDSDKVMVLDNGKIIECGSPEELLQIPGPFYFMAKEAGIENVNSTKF", "UniProt P08183, whole entry": "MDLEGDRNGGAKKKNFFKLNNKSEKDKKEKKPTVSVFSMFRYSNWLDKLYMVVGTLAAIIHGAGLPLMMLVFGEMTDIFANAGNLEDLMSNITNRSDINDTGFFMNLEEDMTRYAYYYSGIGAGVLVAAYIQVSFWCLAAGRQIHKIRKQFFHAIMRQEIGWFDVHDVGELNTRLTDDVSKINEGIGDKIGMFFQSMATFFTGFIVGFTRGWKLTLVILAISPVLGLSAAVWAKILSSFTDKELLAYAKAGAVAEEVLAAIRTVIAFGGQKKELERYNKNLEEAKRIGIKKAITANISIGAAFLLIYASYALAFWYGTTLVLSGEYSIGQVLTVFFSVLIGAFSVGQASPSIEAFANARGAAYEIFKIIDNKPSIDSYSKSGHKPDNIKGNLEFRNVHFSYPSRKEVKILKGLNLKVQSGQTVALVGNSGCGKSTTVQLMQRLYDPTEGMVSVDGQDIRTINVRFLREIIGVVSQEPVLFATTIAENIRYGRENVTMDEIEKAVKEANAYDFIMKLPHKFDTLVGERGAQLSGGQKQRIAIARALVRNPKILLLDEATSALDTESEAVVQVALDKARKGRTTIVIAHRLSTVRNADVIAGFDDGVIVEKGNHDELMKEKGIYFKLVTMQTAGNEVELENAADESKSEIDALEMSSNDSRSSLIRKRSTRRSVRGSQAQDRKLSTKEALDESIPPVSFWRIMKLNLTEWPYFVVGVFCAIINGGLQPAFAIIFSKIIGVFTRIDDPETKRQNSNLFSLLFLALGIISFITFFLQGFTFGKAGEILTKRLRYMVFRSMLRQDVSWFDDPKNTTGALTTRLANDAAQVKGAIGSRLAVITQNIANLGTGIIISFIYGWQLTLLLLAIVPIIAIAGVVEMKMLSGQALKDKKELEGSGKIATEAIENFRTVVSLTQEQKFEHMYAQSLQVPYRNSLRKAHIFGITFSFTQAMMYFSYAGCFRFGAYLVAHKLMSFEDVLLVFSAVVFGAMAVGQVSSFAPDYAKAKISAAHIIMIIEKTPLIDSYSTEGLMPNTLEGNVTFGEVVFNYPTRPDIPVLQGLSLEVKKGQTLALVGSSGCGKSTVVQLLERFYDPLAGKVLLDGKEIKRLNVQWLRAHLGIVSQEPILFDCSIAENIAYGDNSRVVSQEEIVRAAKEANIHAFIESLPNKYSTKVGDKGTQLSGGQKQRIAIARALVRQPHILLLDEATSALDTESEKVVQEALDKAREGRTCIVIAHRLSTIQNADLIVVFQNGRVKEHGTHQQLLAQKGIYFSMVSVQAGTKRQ"}, "source": "paper PMC12057336", "about": "(Antimicrobial Agents and Chemotherapy, 2025)", "key": {"human OAT1": {"target": "human OAT1 (Homo sapiens, UniProt Q4U2R8)", "conditions": "5 µM; 10 min; 37°C; vs mock cells", "method": "(§1) OATP1B1-, OATP1B3-, OATP2B1-, NTCP-, OAT1-, and OAT3-transfected HEK293 cells were cultured in DMEM supplemented with 10% FBS, 100 U/mL penicillin-streptomycin at 37°C with 95% relative humidity atmosphere containing 5% CO2. All cells were seeded in 24-well plates at a density of 4 × 10^5 cells/well and cultured for 1–2 days until they reached 80%–90% confluence. Prior to the initiation of uptake studies, the cells were washed twice with HBSS buffer at 37°C. Membrane vesicles were stored at −80°C and thawed at 37°C prior to the initiation of the studies.\nAll uptake tests were performed in triplicates. The activities of transporter-transfected HEK293 cells were evaluated using relevant positive substrates and inhibitors. E17G (5 µM, OATP1B1 and OATP1B3), ES (2 µM, OATP2B1), ES (5 µM, OAT3), TCA (10 µM, NTCP), and PAH (20 µM, OAT1) were used as substrates of the transporters. The inhibitors for each transporter were rifampicin (200 µM, OATP1B1 and OATP1B3), erlotinib (10 µM, OATP2B1), CsA (20 µM, NTCP), and probenecid (200 µM, OAT1 and OAT3).\nThe cells were washed three times with ice-cold HBSS buffer. […] The total protein concentration was measured using a BCA Protein Assay Kit. The uptake rates of HEK293-OATP1B1, HEK293-OATP1B3, HEK293-OATP2B1, HEK293-NTCP, HEK293-OAT1, HEK293-OAT3, and mock cells were calculated. […]"}, "OCT1": {"system": "OCT1", "conditions": "cited from earlier work"}, "human MRP2": {"target": "human MRP2 (Homo sapiens, UniProt Q92887)", "conditions": "5 µM; 5 min; 37°C; ATP vs AMP", "method": "as §1\n(§2) An AB Sciex 4000 Mass Spectrometer (AB Sciex, Framingham, MA, USA) and Shimadzu LC 20 series (Shimadzu, Kyoto, Japan) were used for HPLC-MS/MS. […] The Phenomenex Synergi Hydro-RP column (30 mm × 2 mm, 4 µm, Phenomenex Inc., Torrance, CA, USA) was used for chromatographic separation. The mobile phase consisted of 0.1% (vol/vol) formic acid in water (A) and 0.1% (vol/vol) formic acid in acetonitrile (B). The gradient conditions were as follows: 0–1.4 min, 15%–80% B; 1.4–1.8 min, 80% B; 1.8–1.81 min, return to 15% B; 1.81–2.1 min, equilibrium. The flow rate was 450 µL/min. Data acquisition and analysis were performed using the Analyst software (version 1.4.1, AB Sciex)."}, "human MDR1": {"target": "human MDR1 (Homo sapiens, UniProt P08183)", "conditions": "5 µM; 5 min; 37°C; ATP vs AMP", "method": "as §1, §2"}, "OATP1B1": {"system": "OATP1B1", "conditions": "cited from earlier work"}, "[1]": {"conditions": "PNU-142300 and PNU-142586; cited from earlier work"}, "OCT2": {"system": "OCT2", "conditions": "cited from earlier work"}}}
{"smiles": "CC(=O)NC[C@H]1CN(c2ccc(N3CCOCC3)c(F)c2)C(=O)O1", "note": "[Linezolid]", "values": [{"measurement": "substrate for OAT1", "setting": "human OAT1", "result": "not a substrate"}, {"measurement": "substrate for OCT1", "setting": "OCT1", "result": "not a substrate"}, {"measurement": "substrate for MRP2", "setting": "human MRP2", "result": "not a substrate"}, {"measurement": "substrate for MDR1", "setting": "human MDR1", "result": "not a substrate"}, {"measurement": "inhibitor of OATP1B1", "setting": "OATP1B1", "result": "inhibitor"}, {"measurement": "administered dose excreted in the urine as the two metabolites", "setting": "[1]", "result": "Approximately 50%"}, {"measurement": "inhibitor of OCT2", "setting": "OCT2", "result": "not an inhibitor"}]}
